Each structure is given as a SMILES string. The list shows a part of the results, in another mix than the full data. Some tests of the compounds listed are not included; inactive here does not mean inactive elsewhere. Activity calls are given as the source filed them. No stated cut-off is given here; in the data, active means activity change below about -30%; inactive means the rest.
On the % scale 0 is the no-effect control and ±100 the full control effect.

The assay concerns cytosolic chaperonin (CCT/TRiC complex). In words: High-Throughput Screening for Modulators of Cytosolic Chaperonin Activity. Conditions: purified chaperonin ATPase assay, HTRF ADP detection, 30 min; hits give low values. An excerpt: The eukaryotic chaperonin named TRiC (for TCP-1 ring complex), also called CCT (for chaperonin containing TCP1), is an essential and conserved chaperone required for the folding and activation of 10-15% of the proteins encoded by the human genome. […] Despite its central role in cellular folding, little is known about TRiC mechanism and mode of substrate binding. Currently, no specific TRiC inhibitors are available. Given the early promise of other chaperone-directed inhibitors as cancer therapeutics (e.g. HSP90 inhibitors), inhibitors of TRiC activity may also selectively target transformed cells and have potential use as therapeutics for cancer.
To this end, a miniaturized assay was developed to screen against the Molecular Libraries Small Molecule Repository (MLSMR).
NIH Chemical Genomics Center [NCGC]
NIH Molecular Libraries Probe Centers Network [MLPCN]
Assay Submitter (PI): Judith Frydman, Stanford University
1.5 uL/well TRiC enzyme suspended in buffer (30 mM TRIS pH7.4, 100 mM KCl, 5 mM MgCl2, 1 mM DTT) was added with BioRAPTR FRD dispenser at 40 nM or 20 nM (based on the enzymatic activity of used batches) final concentration to a white solid bottom medium binding 1536-well plate (Greiner Bio-One, Monroe, NC), and quickly spanned down. 23 nl/well of compound solutions in DMSO were added with a pintool transfer (Kalypsis, San Diego, CA) at a single 76 uM final concentration. Next, 1.5 µl/well ATP was dispensed with BioraptR at 10 uM final concentration after which the plates were incubated at 37 deg C for 30 min. HTRF(R) Transcreener(R) ADP (Cisbio US, Bedford, MA) detection reagents were prepared accordingly to the protocol and dispensed into the plate (1.5 uL/well each), incubated for 30 min at ambient temperature. Then, the plates were read using Envision reader with excitation at 330nm and emission at 615nm (Eu(3)-Cryptate donor signal) and 665nm (d2 acceptor signal). The ratio of […] was calculated for each well.
A general note: TR-FRET usually uses a lanthanide donor and a delayed reading to cut background.
In the case of `COc1ccc(C(=O)NCC2(N(C)C)CCCCC2)cc1`, the activity change is inactive: -2.96%.

As for `O=C(NCC1(N2CCCCC2)CCCCC1)c1cccc(Br)c1`, the activity change is inactive: 1.02%.

Consider `CCN1CCCC(OC(=O)C2(O)c3ccccc3C=Cc3ccccc32)C1` (stereo unspecified), for which the activity change is inactive: -0.354%.

As to `Cc1cc(C(=O)NCC2(N3CCCCC3)CCCCC2)ccc1[N+](=O)[O-]`, the activity change was inactive: 0.763%.

For the compound `O=C(NCC1(N2CCCCC2)CCCCC1)c1cc(F)c(F)cc1Cl`, the activity change was inactive: 0.185%.

As to `C=CCN1CCN(CCOC(=O)C(O)(c2ccccc2)c2ccccc2)CC1`, the activity change was inactive: -3.06%.

For the compound `CN(C)c1ccc(C(=O)NCC2(N(C)C)CCCCC2)cc1`, the activity change was inactive: 2.03%.

Consider `CN(C)C1CCCC1OC(=O)C(O)(c1ccccc1)c1ccccc1` (stereo unspecified), for which the activity change was inactive: -0.379%.

For `Cc1ccccc1C(=O)NCC1(N2CCCCC2)CCCCC1`, the activity change was inactive: -2.15%.

`Cc1ccc(C(=O)NCC2(N3CCCCC3)CCCCC2)cc1`: the activity change is inactive: 0.416%.

On to `COc1cc(SC)ccc1C(=O)NCC1(N(C)C)CCCCC1`, for which the activity change is inactive: -0.744%.

On to `CCN(CC)CC(C)C(C)OC(=O)C(O)(c1ccccc1)c1ccccc1` (stereo unspecified), for which the activity change was inactive: -0.826%.

In the case of `CC(C)N1C(=O)CC2(CCN(CCOC(=O)C(O)(c3ccccc3)c3ccccc3)CC2)C1=O`, the activity change is inactive: 0.719%.

On to `CN1[C@@H]2CC[C@H]1CC(OC(=O)C(O)(c1ccccc1)c1ccccc1)C2` (stereo partly specified), for which the activity change is inactive: -8.02%.

Consider `O=C(NCC1(N2CCCCC2)CCCCC1)c1cc([N+](=O)[O-])ccc1Cl`, for which the activity change was inactive: -2%.

Regarding `O=C(OCCN1CCCC1)C(O)(c1ccccc1)c1ccccc1`, the activity change is inactive: -6.88%.

Turning to `CC(C)Oc1ccc(C(=O)NCC2(N(C)C)CCCCC2)cc1`, the activity change is inactive: -0.656%.

`CN(C)c1cccc(C(=O)NCC2(N(C)C)CCCCC2)c1`: the activity change was inactive: 0.734%.

With `C=C(C)C#CC(O)(C(=O)OC1CCN(C)CC1)c1ccccc1` (stereo unspecified), the activity change was inactive: -1.1%.

For the compound `COc1ccc(Br)c(C(=O)NCC2(N3CCCCC3)CCCCC2)c1`, the activity change is inactive: 2.63%.

Regarding `O=C(OC1CN2CCC1CC2)C(CO)(c1ccccc1)c1ccccc1` (stereo unspecified), the activity change is inactive: -1.82%.

For `O=C(NCC1(N2CCCCC2)CCCCC1)c1cccc(Cl)c1`, the activity change is inactive: -1.39%.

With `COc1ccc(Cl)cc1C(=O)NCC1(N(C)C)CCCCC1`, the activity change was inactive: -1.03%.

As to `COc1cccc(C(=O)NCC2(N3CCCCC3)CCCCC2)c1`, the activity change was inactive: 1.46%.

As for `COc1cc(C(=O)NCC2(N(C)C)CCCCC2)c([N+](=O)[O-])cc1OC`, the activity change was inactive: -2.47%.

With `CN(C)C1(CNC(=O)c2ccc(Br)cc2)CCCCC1`, the activity change was inactive: -0.114%.

Values taken from PubChem BioAssay AID651819 (National Center for Advancing Translational Sciences (NCATS), 2012).
